Laboratory results: PMC5148066

Sequences of proteins named here, by UniProt entry; tags and fusion partners are left off. Residues count along the entry.
UniProt P30882, 24-91: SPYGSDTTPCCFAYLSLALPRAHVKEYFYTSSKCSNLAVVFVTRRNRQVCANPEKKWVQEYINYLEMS

Columns and labels:
[1] = molecular target: Bovine papular stomatitis virus chemokine-binding protein (Bovine papular stomatitis virus (strain V660 named for the sequence analysis)); assay: SPR; BPSV-CBP immobilised on a CM5 chip (~500 RU) by amine coupling; serial dilutions of mouse chemokines in HBS-EP (20 mM HEPES, 150 mM NaCl, 3.4 mM EDTA, 0.005% Polysorbate 20, pH 7.4) run in triplicate, 3 min association, 10 min dissociation; 25°C, Biacore X100; global fit with a 1:1 binding model
[2] = molecular target: Bovine papular stomatitis virus chemokine-binding protein (Bovine papular stomatitis virus); assay: SPR; BPSV-CBP immobilised on a CM5 chip (~500 RU, amine coupling, 10 mM sodium acetate pH 4.5); serial dilutions of mouse chemokines in HBS-EP pH 7.4 flowed in triplicate, 3 min association, 10 min dissociation, 25°C, Biacore X100; global fit, 1:1 binding model

## mouse CCL5 (from UniProt P30882 24-91) (ligand)
[1]
  koff: 2e-05 s⁻¹
[2]
  Kd: 3.75 pM
  kon: 5.32e+06 M⁻¹ s⁻¹
